For the assay, the target named is T1, control Fc.
T1 construct: Control protein in the Biacore, pull-down and spleen cell experiments
As to the kind of experiment: Biacore (SPR): control Fc as the immobilised comparison surface, Siglec-10Fc as analyte; value printed under the KD of CD24Fc. On the procedure:
To measure the interaction between CD24Fc and Siglec 10, we immobilized CD24Fc onto a CHIP and used Biacore to measure the binding of different concentrations of Siglec-10Fc. […] To determine whether CD24Fc is an agonist of Siglec G, the mouse counterpart of human Siglec 10, we stimulated CD24-/- spleen cells with CD24Fc, control Fc or vehicle (PBS) control for 30 minutes. Siglec G was then immunoprecipitated and probed with anti-phospho-tyrosine or anti-SHP-1.

B1: Siglec-10Fc (Fc fusion, human, UniProt Q96LC7 17-546, looked up)
chain: MDGRFWIRVQESVMVPEGLCISVPCSFSYPRQDWTGSTPAYGYWFKAVTETTKGAPVATNHQSREVEMSTRGRFQLTGDPAKGNCSLVIRDAQMQDESQYFFRVERGSYVRYNFMNDGFFLKVTALTQKPDVYIPETLEPGQPVTVICVFNWAFEECPPPSFSWTGAALSSQGTKPTTSHFSVLSFTPRPQDHNTDLTCHVDFSRKGVSAQRTVRLRVAYAPRDLVISISRDNTPALEPQPQGNVPYLEAQKGQFLRLLCAADSQPPATLSWVLQNRVLSSSHPWGPRPLGLELPGVKAGDSGRYTCRAENRLGSQQRALDLSVQYPPENLRVMVSQANRTVLENLGNGTSLPVLEGQSLCLVCVTHSSPPARLSWTQRGQVLSPSQPSDPGVLELPRVQVEHEGEFTCHARHPLGSQHVSLSLSVHYSPKLLGPSCSWEAEGLHCSCSSQASPAPSLRWWLGEELLEGNSSQDSFEVTPSSAGPWANSSLSLHGGLSSGLRLRCEAWNVHGAQSGSILQLPDKKGLIST
notes: The construct is named only as Siglec-10Fc; not shown: Fc part of Siglec-10Fc
In the case of B1, binding was characterised by a dissociation constant (Kd) of 16.2 µM.

For the origin of these results see US20210228680A1 (ONCOIMMUNE, published 2021).
